scFv variants of Ab-14 (heavy chain) against a SARS-CoV-2 spike peptide

Reference: Engelhart et al. 2022, doi:10.1038/s41597-022-01779-4. File: FLAb, binding data.

Antigen: PDVDLGDISGINAS, a 14-residue peptide of the SARS-CoV-2 spike HR2 region.

Parent scFv Ab-14: VH joined to VL by a (GGGGS)3 linker. Changes lie in the heavy chain CDRs alone.
VH: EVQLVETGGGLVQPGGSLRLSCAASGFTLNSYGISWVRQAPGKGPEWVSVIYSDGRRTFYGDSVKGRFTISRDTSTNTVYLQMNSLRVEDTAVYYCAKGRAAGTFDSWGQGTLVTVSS
VL: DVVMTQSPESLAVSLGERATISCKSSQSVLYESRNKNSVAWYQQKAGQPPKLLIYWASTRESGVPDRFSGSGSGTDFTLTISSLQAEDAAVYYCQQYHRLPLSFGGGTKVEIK

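Library AAYL49 holds single substitutions and randomly drawn double and triple substitutions in the CDRs. The scFvs were displayed on barcoded MATa yeast, the peptide on MATalpha yeast. Pairs that bind mate more often; barcode pairs of the diploids are counted by sequencing. A regression on co-assayed BCL2-family reference pairs converts the normalised counts of each replicate to an apparent Kd. Each pool was mated in three replicate cultures.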

Substitutions are numbered in sequence along the VH above, starting at 1 (not Kabat). This list gathers variants with a substitution at F59 (VH, numbered from residue 1). The Kd shown is the geometric mean over detected replicates; a lower Kd is a better binder. An entry "no signal" has no value in the source: the pair was not observed among the diploids in any replicate. This suggests poor binding but is not conclusive. For reference, the parent read 4.4 nM as the reference entry and 13 µM (one replicate of three) as a member of this library. As a blank, each scFv also met three strains without target: over library AAYL49, 15% of these pairings were detected, typically at 11 µM and seldom below 680 nM.

- F59Q/V64K = no signal (0 of 3 replicates)
- F59C/A101N/D106W = no signal (0 of 3 replicates)
- F27V/F59A/G61K = 12 nM (3 of 3 replicates)
- S31E/F59H/A101F = no signal (0 of 3 replicates)
- Y32W/F59A/F105C = 1.8 µM (1 of 3 replicates)
- G26T/R57K/F59C = 2.8 µM (1 of 3 replicates)
- F59E/G61K/A102E = no signal (0 of 3 replicates)
- Y32I/F59I/S107K = 20 µM (1 of 3 replicates)
- L29C/S35V/F59Q = no signal (0 of 3 replicates)
- Y32D/I34C/F59L = no signal (0 of 3 replicates)
- S31H/F59V/V64A = 29 nM (3 of 3 replicates)
- S35Y/D54F/F59A = 11 µM (2 of 3 replicates)
- F27L/Y52R/F59I = no signal (0 of 3 replicates)
- Y32M/F59I/S107A = 3.4 µM (1 of 3 replicates)
- D54M/F59S/Y60K = 26 µM (1 of 3 replicates)
- F59Q/D62F/T104G = no signal (0 of 3 replicates)
- Y32T/F59P/R100I = no signal (0 of 3 replicates)
- N30K/Y32P/F59R = no signal (0 of 3 replicates)
- Y52F/F59A/G99Y = no signal (0 of 3 replicates)
- F59S/F105H = no signal (0 of 3 replicates)
- Y32Q/F59E/T104H = 800 nM (1 of 3 replicates)
- F59V/A102S/F105H = 4.6 nM (3 of 3 replicates)
- Y52M/F59E/K65D = 7.2 µM (2 of 3 replicates)
- F59I/K65S/G103D = no signal (0 of 3 replicates)
- S31P/R57M/F59A = 24 µM (3 of 3 replicates)
- I51E/Y52V/F59I = no signal (0 of 3 replicates)
- S35Q/F59V/S63C = 29 µM (2 of 3 replicates)
- L29T/F59S/A102G = no signal (0 of 3 replicates)
- F27E/D54K/F59I = 220 µM (1 of 3 replicates)
- F59M/G61F = 210 nM (1 of 3 replicates)
- F27N/I51N/F59M = 22 µM (1 of 3 replicates)
- T58R/F59C/D62E = 3.9 µM (1 of 3 replicates)
- S53V/G55K/F59V = no signal (0 of 3 replicates)
- R56N/F59R = 2.6 µM (3 of 3 replicates)
- D54A/F59Y = no signal (0 of 3 replicates)
- F59Y/G61E/A102W = no signal (0 of 3 replicates)
- G26W/F59M/D106I = no signal (0 of 3 replicates)
- R56Y/F59S/K65F = 170 nM (3 of 3 replicates)
- I51K/F59K/D62K = no signal (0 of 3 replicates)
- G55E/F59I/V64K = 47 µM (1 of 3 replicates)
- N30R/S53L/F59R = 400 µM (2 of 3 replicates)
- F59N/V64E/G103M = no signal (0 of 3 replicates)
- G33N/F59L/G61W = 100 µM (2 of 3 replicates)

The last 4 entries again:

| changes | Kd | replicates with signal |
|---|---|---|
| G55E/F59I/V64K | 47 µM | 1/3 |
| N30R/S53L/F59R | 400 µM | 2/3 |
| F59N/V64E/G103M | no signal | 0/3 |
| G33N/F59L/G61W | 100 µM | 2/3 |